Experimental data published in US20250122173A1, “MODULATORS OF RHO-ASSOCIATED PROTEIN KINASE” (Redx Pharma Limited, priority 2022, published 2025).

Chains of the proteins cited; added tags and fusions are not shown. Residues count along the entry.
UniProt O75116, 11-552 limits assumed: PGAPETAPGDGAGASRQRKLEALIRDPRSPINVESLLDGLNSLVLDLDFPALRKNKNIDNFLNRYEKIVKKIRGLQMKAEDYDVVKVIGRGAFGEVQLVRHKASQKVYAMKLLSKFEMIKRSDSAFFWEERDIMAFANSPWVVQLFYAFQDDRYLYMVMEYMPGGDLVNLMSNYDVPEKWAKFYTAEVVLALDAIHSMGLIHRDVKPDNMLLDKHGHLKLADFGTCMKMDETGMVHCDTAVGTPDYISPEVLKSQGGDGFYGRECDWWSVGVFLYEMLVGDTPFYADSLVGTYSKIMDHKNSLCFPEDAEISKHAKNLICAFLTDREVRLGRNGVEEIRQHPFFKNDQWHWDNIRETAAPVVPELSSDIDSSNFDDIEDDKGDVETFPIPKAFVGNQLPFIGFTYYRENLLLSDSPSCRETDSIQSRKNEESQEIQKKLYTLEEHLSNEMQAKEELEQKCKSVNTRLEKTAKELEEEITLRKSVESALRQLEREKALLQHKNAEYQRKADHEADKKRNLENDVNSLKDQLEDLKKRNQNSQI
UniProt Q13464, whole entry: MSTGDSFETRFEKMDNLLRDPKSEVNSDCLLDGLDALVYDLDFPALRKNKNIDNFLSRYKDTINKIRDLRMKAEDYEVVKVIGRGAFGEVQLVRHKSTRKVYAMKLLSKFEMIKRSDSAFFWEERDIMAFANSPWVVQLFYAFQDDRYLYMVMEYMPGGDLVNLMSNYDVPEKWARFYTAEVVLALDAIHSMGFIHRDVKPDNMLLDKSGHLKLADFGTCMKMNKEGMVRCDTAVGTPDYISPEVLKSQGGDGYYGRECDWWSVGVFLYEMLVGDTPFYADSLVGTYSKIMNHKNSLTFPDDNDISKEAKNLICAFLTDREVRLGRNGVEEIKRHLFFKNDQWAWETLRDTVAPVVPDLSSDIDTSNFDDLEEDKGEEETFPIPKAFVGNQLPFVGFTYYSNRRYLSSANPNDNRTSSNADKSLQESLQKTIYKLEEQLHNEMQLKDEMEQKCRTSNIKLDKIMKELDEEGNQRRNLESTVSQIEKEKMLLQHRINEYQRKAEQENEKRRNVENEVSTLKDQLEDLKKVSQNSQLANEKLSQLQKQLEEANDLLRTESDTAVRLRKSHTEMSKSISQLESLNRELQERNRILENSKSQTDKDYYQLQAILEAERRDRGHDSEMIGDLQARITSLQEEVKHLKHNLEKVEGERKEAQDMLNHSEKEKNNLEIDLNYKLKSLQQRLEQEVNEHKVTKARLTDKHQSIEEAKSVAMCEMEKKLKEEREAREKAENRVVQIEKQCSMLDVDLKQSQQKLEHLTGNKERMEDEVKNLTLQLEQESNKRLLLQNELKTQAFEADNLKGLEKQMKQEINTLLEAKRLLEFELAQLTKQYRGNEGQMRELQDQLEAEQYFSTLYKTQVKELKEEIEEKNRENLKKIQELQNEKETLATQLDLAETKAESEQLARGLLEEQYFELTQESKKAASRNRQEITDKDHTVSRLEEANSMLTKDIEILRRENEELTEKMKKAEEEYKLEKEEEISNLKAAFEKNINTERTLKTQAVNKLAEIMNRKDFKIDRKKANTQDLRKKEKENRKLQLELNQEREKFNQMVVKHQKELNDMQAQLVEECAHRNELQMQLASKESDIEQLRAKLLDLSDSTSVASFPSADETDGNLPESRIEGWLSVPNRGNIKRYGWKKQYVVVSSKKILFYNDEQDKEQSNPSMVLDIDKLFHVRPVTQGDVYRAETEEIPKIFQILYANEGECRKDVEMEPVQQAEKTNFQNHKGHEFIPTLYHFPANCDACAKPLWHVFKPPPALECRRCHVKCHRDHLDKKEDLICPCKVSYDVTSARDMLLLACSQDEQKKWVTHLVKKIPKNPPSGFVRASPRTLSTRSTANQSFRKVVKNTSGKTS

Columns and labels:
ROCK2 = ROCK2 (Homo sapiens, UniProt O75116); assay: ROCK2 inhibition assay (ADP-Glo kinase assay, called ROCK2 binding activity); type: biochemical; conditions: read-out: ROCK 2 (IC50 category), 20 μM ATP, 1 hour pre-incubation
Procedure: ROCK2 Binding Activity: Assay for ROCK2 inhibition was performed using the protein construct N-terminal 6His-tagged ROCK2 catalytic domain 11-552 (Dundee University, UK). Protein was purified from a baculovirus expression system. Long S6 peptide ([…]) was used as substrate. Kinase reactions were carried out in 15 μl volume in a 96-well plate (black, half area) using 1.25 nM constitutively active ROCK2 kinase, 100 μM long S6 peptide, 20 μM ATP and test compound in DMSO (or DMSO only for controls). The final concentration of DMSO was 1%. Assay buffer was 50 mM HEPES pH 7.5 supplemented with 0.2 mM EDTA, 10 mM magnesium acetate, 0.01% Tween-20, 1 mM DTT and 0.01% BSA. Test compounds were pre-incubated with ROCK2 kinase for 1 hour before addition of ATP and long S6 peptide. After incubation for a further 1 hour, the amount of ADP produced was measured using ADP-Glo Kinase Assay (Promega) as per manufacturer's instructions. The luminescence was measured on a PHERAstar FS (BMG Labtech). The concentration of test compound required to inhibit ADP production by 50% (the IC50) was calculated using a four-parameter logistic function with software by Dotmatics. […] The category “+” refers to compounds with a ROCK2 or ROCK1 IC50 value of >10 μM. The category “++” refers to compounds with a ROCK2 or ROCK1 IC50 value of 10 to 3 μM. […]

ROCK1 = ROCK1 (Homo sapiens, UniProt Q13464); assay: ROCK1 inhibition assay (ROCK1 binding activity, as determined by the assay described for ROCK2); type: biochemical; conditions: read-out: ROCK 1 (IC50 category)
Procedure: Assay for ROCK2 inhibition was performed using the protein construct N-terminal 6His-tagged ROCK2 catalytic domain 11-552 (Dundee University, UK). Protein was purified from a baculovirus expression system. Long S6 peptide ([…]) was used as substrate. Kinase reactions were carried out in 15 μl volume in a 96-well plate (black, half area) using 1.25 nM constitutively active ROCK2 kinase, 100 μM long S6 peptide, 20 μM ATP and test compound in DMSO (or DMSO only for controls). The final concentration of DMSO was 1%. Assay buffer was 50 mM HEPES pH 7.5 supplemented with 0.2 mM EDTA, 10 mM magnesium acetate, 0.01% Tween-20, 1 mM DTT and 0.01% BSA. Test compounds were pre-incubated with ROCK2 kinase for 1 hour before addition of ATP and long S6 peptide. After incubation for a further 1 hour, the amount of ADP produced was measured using ADP-Glo Kinase Assay (Promega) as per manufacturer's instructions. The luminescence was measured on a PHERAstar FS (BMG Labtech). The concentration of test compound required to inhibit ADP production by 50% (the IC50) was calculated using a four-parameter logistic function with software by Dotmatics. […] The category “+” refers to compounds with a ROCK2 or ROCK1 IC50 value of >10 μM. The category “++” refers to compounds with a ROCK2 or ROCK1 IC50 value of 10 to 3 μM. The category “+++” refers to compounds with a ROCK1 or ROCK2 IC50 value of 3 to 0.3 μM. […]

IC50 (ROCK2): < 0.3 µM
IC50 (ROCK1): > 10 µM
Structure (SMILES): CCn1nc(-c2ccc(-c3ccc(C)nc3)c(F)c2)nc1Nc1ccc2c(c1)CNC2=O
